{
  "source": "paper PMC13538185",
  "about": "“The PSD-95 inhibitor NA-1 is delivered to the brain upon nasal administration with uptake into the olfactory bulb improved by co-administration with the cell-penetrating peptides lowPro and Tat” (Drug Delivery and Translational Research, 2025)",
  "test_system": "primary porcine olfactory epithelial monolayers",
  "details": "ALI 20-21 days, apical to basolateral, 0.5 mg/mL in transport medium (MEM, 0.05% BSA), 37 °C, fluorescence read-out, mean (N = 3-4, n = 3)",
  "data": [
    {"substance": "FITC-dextran", "values": [
      {"measurement": "Fraction of applied compound permeated the barrier upon 24 h of incubation", "result": 3.7, "unit": "%"}
    ]}
  ]
}
